AlphaSeq binding of Ab-14 heavy chain variants to a spike HR2 peptide

The measurements come from Li et al. 2023 (doi:10.1038/s41467-023-39022-2) through the FLAb antibody collection.

Target peptide (SARS-CoV-2 spike, HR2 region): PDVDLGDISGINAS

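The starting antibody came from a phage panning campaign against this peptide. The variants were designed computationally from a first round of random CDR variants and then made and measured. Their group label is 14H_Rand (Rand: our label for a block that the file lists under HC and that is probably the random mutants of the ten best first-round binders). The assay is AlphaSeq: two haploid yeast populations carry antibody and antigen on their surface. Mating (16 h, 30 °C) was followed by selection of diploids and sequencing of their barcodes. A regression on co-assayed BCL2-family reference pairs converts the normalised counts of each replicate to an apparent Kd. Each pool was mated in six replicate cultures.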

The variants keep the light chain, the linker and the frameworks of Ab-14 (scFv order VH, a (GGGGS)3 linker, VL).
VH: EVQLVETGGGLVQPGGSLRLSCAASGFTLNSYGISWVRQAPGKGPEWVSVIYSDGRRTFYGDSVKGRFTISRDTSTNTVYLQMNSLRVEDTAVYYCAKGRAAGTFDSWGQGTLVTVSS
VL: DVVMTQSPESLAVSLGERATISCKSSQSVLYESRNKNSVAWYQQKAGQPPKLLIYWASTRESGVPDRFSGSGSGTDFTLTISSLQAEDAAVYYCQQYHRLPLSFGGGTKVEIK

Positions count from residue 1 of the parent VH; S31Q puts Q in place of S. Values are log10 of the apparent Kd in nM; lower means stronger binding. An entry "nd" has no value in the source: the pair was not observed among the diploids in that replicate. This suggests poor binding but is not conclusive. The authors averaged sequences with at least three values out of six and counted those with two or fewer as poor binders. A sequence measured in both rounds can read differently, since the two assays cover different ranges. Three control strains display no target. For all heavy chain designs, 1% of the pairings with them gave a signal, with a median of 2.08 and one signal in twenty below 0.84, so weak values seen in few replicates may be background. The control count says in how many pairings with the empty strains this scFv gave a signal, with their mean in brackets. Of ten entries with the parent sequence, four were seen in most replicates (averages 0.34 to 2.37), three in one and three in none, so single entries are noisy.

| changes | log10 Kd, replicates | empty controls |
|---|---|---|
| S31Q+G61S+T104F+F105D+D106W | nd nd nd nd nd nd | 0/18 |
| F59N+G61D+R100Q+A101E+T104F | nd nd nd nd nd nd | 0/18 |
| S31I+G103V+S107Q | nd nd nd nd nd nd | 0/18 |
| G26N+S31D+F59Q+G61I+F105M | nd nd nd nd nd nd | 0/18 |
| S53W+D54W+G61D+V64F+R100Q+A101L | nd nd nd nd nd nd | 0/18 |
| Y32C+R56M+G61S+G99K+A102G+G103R+F105K | nd nd nd nd nd nd | 0/18 |
| S53A+R100D+F105N+D106Y | -0.23 -0.15 0.00 -0.11 0.14 0.04 | 0/18 |
| Y32H+I51K+S53A+T58H+R100E+F105K+D106K | nd nd nd nd nd nd | 0/18 |
| S31Q+D54R+F59Q+G61S+T104F | nd nd nd nd nd nd | 0/18 |
| L29T+N30D+G99K+F105A+D106L | nd nd nd nd nd nd | 0/18 |
| L29G+N30D+R100P+F105A+D106L | nd nd nd nd nd nd | 0/18 |
| Y32W+G33M+G61S+A102G | nd nd nd nd nd nd | 1/18 (1.96) |
| S31Q+S35H+G55P+G61M+T104F | nd nd nd nd nd nd | 0/18 |
| G26H+T28D+L29W+T104W+D106N | nd nd nd nd nd nd | 0/18 |
| S31Q+G61S+G103T+T104F | nd nd nd nd 1.94 nd | 0/18 |
| S31Q+I51E+G61S+T104F+S107L | 0.13 0.44 0.55 0.07 2.39 1.07 | 1/18 (1.93) |
| S31E+S63V+A102G+G103V+S107D | nd nd nd nd nd nd | 0/18 |
| S31D+F59Q+G61I+A101P+F105E | nd nd nd nd nd nd | 2/18 (1.89) |
| S31D+F59E+G61I+G103M | nd nd nd nd nd nd | 1/18 (2.55) |
| T28D+L29A+S63Y+T104W+D106N | nd nd nd nd nd nd | 0/18 |
| N30D+S35C+I51W+F105A+D106L | nd nd nd nd nd nd | 0/18 |
| S31Q+Y60S+G61S+T104H+F105W | nd nd nd nd nd nd | 0/18 |
| F27R+L29I+N30D+D54T+A101K+F105A+D106L | nd nd nd nd nd 0.16 | 0/18 |
| S53A+S63V+F105P+D106K | nd nd nd nd nd nd | 0/18 |
| F27C+Y52K+G61S+A102G | nd nd nd nd nd nd | 0/18 |
| I51M+F59Y+G61D+R100Q+A101L+G103R | nd nd nd nd nd nd | 0/18 |
| S31E+I51A+Y60S+G61T+A101F+T104S | nd nd nd nd nd nd | 0/18 |
| N30S+S31D+I51E+R56T+R57Y+F59Q+G61I | nd nd nd 1.21 nd nd | 0/18 |
| L29D+N30D+S31D+S53V+R56D+T104N+F105V+D106L | nd nd 2.14 nd nd nd | 0/18 |
| T28D+D62G+A102P+T104W+D106N | nd nd nd nd nd nd | 0/18 |
| S31Q+G61S+G99S | nd nd nd nd nd nd | 0/18 |
| I51K+Y52A+G99A+F105N+D106K | nd nd nd nd nd nd | 0/18 |
| S31E+G103V+F105D+S107D | nd nd nd nd nd nd | 0/18 |
| S31D+A101Y+G103L+D106I | nd nd nd nd nd nd | 0/18 |
| S31E+G103V+T104Q+S107Q | nd nd nd nd nd nd | 0/18 |
| S35D+G61D+R100Q+A101L | nd nd nd nd nd nd | 0/18 |
| S31E+T58F+Y60R+G103V+S107Q | nd nd nd nd nd nd | 0/18 |
| N30D+Y32N+S63C+A102R+F105A+D106L | nd nd nd nd nd nd | 1/18 (0.75) |
| S31Q+G55D+G61S+A101M+T104F | nd nd nd nd nd nd | 0/18 |
| S53A+A101Y+F105D+D106K | nd nd nd nd nd nd | 0/18 |
| N30M+R57Q+G61D+R100Y+A101L+G103Y+F105W | nd nd nd nd nd nd | 0/18 |
| T28H+S31D+F59Q+G61I+S63P | nd nd nd nd nd nd | 0/18 |
| S31K+S53A+F105N+D106G | nd nd nd nd nd nd | 0/18 |
| T28D+F59M+T104W+D106N | nd nd nd nd nd nd | 0/18 |

6 of these entries, quoted again:

{"changes": "S53W+D54W+G61D+V64F+R100Q+A101L", "log10 Kd, replicates": "nd nd nd nd nd nd", "empty controls": "0/18"}
{"changes": "G26N+S31D+F59Q+G61I+F105M", "log10 Kd, replicates": "nd nd nd nd nd nd", "empty controls": "0/18"}
{"changes": "S31K+S53A+F105N+D106G", "log10 Kd, replicates": "nd nd nd nd nd nd", "empty controls": "0/18"}
{"changes": "S31E+I51A+Y60S+G61T+A101F+T104S", "log10 Kd, replicates": "nd nd nd nd nd nd", "empty controls": "0/18"}
{"changes": "S53A+S63V+F105P+D106K", "log10 Kd, replicates": "nd nd nd nd nd nd", "empty controls": "0/18"}
{"changes": "T28D+D62G+A102P+T104W+D106N", "log10 Kd, replicates": "nd nd nd nd nd nd", "empty controls": "0/18"}